Data reported in PubChem BioAssay AID1566 (Sanford-Burnham Center for Chemical Genomics, 2009).
This is a selection; strong and weak results do not stand in their true shares. Calls of active or inactive are those of the source. No stated cut-off is given here; in the data, active means inhibition above about 50%; inactive means the rest.

Assay: inhibition of NOD2-driven NF-kB reporter – cell-based, luminescence, uHTS, HEK293 (AID 1566)
Conditions: HEK293 NOD2/NF-kB luciferase reporter, at 4 µM, active compounds read high

SMILES | inhibition
C[N+]1=C2C=CC=CC=C2SC12C([N+](=O)[O-])=CC([N+](=O)[O-])=C[C-]2[N+](=O)[O-] (stereo not drawn) | active: 95.5%
O=[N+]([O-])c1ccc(O)c(/C=N/Nc2ccc([N+](=O)[O-])cc2[N+](=O)[O-])c1 | active: 99.1%
O=c1c2cc([N+](=O)[O-])ccc2[nH]c2c([N+](=O)[O-])cc([N+](=O)[O-])cc12 | active: 73.4%
